This experiment has as its system renal clear cell carcinoma and metastases. The following applies: human, in vivo.

For the substance ^18F-FDG, the PET/CT imaging findings result is “abnormal mass in right kidney and metastasis to both lungs and mediastinal lymph nodes”.

These data come from US12564650B2, “Carbonic anhydrase IX-targeting radioactive diagnostic and therapeutic medicament and method for preparing same” (NORROY BIOSCIENCE CO., LTD., priority 2022, dated 2026).
